These results are taken from ChEMBL document CHEMBL4732189, “A facile synthesis of diaryl pyrroles led to the discovery of potent colchicine site antimitotic agents” (Eur J Med Chem, 2021).

The assay is filed under the species Bos taurus. Kind of assay: Potency index, ratio of CA-4 IC50 to test compound IC50 for inhibition of bovine brain tubulin polymerization. Type of assay: tissue-based.

Take `CCOc1ccc(-c2c[nH]cc2-c2cc(OC)c(OC)c(OC)c2)cc1`: the Ratio IC50 was found to be 1.5. With `CCOc1ccc(-c2c[nH]cc2-c2cc(OC)c(OC)c(OC)c2)cc1Cl`, the Ratio IC50 was determined as 1.5. Take `CCOc1ccc(-c2c[nH]cc2-c2cc(OC)c(OC)c(OC)c2)cc1F`: the Ratio IC50 amounted to 1.5.
